Biological target: the molecule itself
Assay: SEC

B1: Grb2 SH2 monomer (SH2 domain of human Grb2, residues 60-152) (domain or fragment, UniProt P62993 60-152, looked up)
chain: WFFGKIPRAKAEEMLSKQRHDGAFLIRESESAPGDFSLSVKFGNDVQHFKVLRDGAGKYFLWVVKFNSLNELVDYHRSTSVSRNQQIFLRDIE
- stoichiometry N: 2
